Patent US7608642B2, “Wound and skin care compositions” (Kimberly-Clark Worldwide, Inc., priority 2002, dated 2009)

Test system: human skin fibroblast cell line (normal human dermal fibroblasts, neonatal)
Details: 1×10^−4 M, 28 hours, serum-free DMEM, n=5

O=C(O)c1ccccc1O [salicylic acid]
Median optical density (OD) at 490 nm, cell proliferation: 0.4050
